The target in assay [1] is GIP receptor. Kind of assay: cell-based or functional assay.
Assay [2] concerns the target GIP receptor. Kind of assay: GIP receptor binding assay (RBA), format not described.

In the assay with GIP receptor [1], “0601GIP3794, (D-Ala2)GIP(1-30)-… amide form (peptide)” yielded a Cyclase of 38. Also, the GIP RBA with GIP receptor [2] came out at 3.8 nM.
Taken in the same sequence, the figures for “0601GIP4178, octylglycine-GIP(1-30)-Exendin-4-(31-39) (peptide)” were 96 and 1.5 nM.
On the same counts, the results for “0601GIP4252, [dAla2]GIP-(1-30)-[Octylglycine 34] Exendin-4 (31-39) (peptide)” are 154 and 5.6 nM.
“0601GIP4285, [dAla2, Leu14, Ala18, glu21] GIP-(1-30)-Exendin-4 (31-39) (peptide)” came in with a GIP RBA with GIP receptor [2] of 0.58 nM.

The values above are taken from patent publication US20090036364A1.
